From US20210311024A1, “NON-CLINICAL TEST METHOD CHARACTERIZED BY QUANTITATIVE EVALUATION OF EXPERIMENTAL ANIMAL SPECIMEN” (Konica Minolta, Inc., priority 2016, published 2021) come the findings set out here.

Assay [1] deals with PDX mice each transplanted with the breast cancer tissue of either of two patients determined as 3+ in the DAB staining (Samples X and Y). Description: Trastuzumab drug efficacy (tumor volume) in breast cancer PDX mice, Example 2. Type of assay: in vivo. Conditions: Sample X; 15 mg/kg i.v. once a day, three times; after 2 weeks.
Another assay relates to HER2. Description: HER2 expression level (PID score, phosphor integrated dots immunostaining) in tumor sections of trastuzumab-treated PDX mice, Example 2. The class given is in vivo, human. Conditions: HER2 number of particles per cell.
Assay [2] has as its system first to third generation PDX mice transplanted with the breast cancer tissue of a patient determined as 3+ in the DAB staining. In words: Trastuzumab drug efficacy (tumor volume) in passaged breast cancer PDX mice, Example 3. The class given is in vivo. Conditions: 15 mg/kg i.v. once a week, five times, one month after first administration.

Take trastuzumab: the “Tumor size (size at the start of administration is taken as 100%)” value in assay [1] turned out to be 50%. The PID score came out at 180 with HER2 (Sample X, after 1 week (200 before administration)); 140 with HER2 (Sample X, after 2 weeks (200 before administration)); 200 with HER2 (Sample X, after 3 days (200 before administration)); 160 in the assay on HER2 (Sample Y, after 3 days (200 before administration)). The “Tumor size after drug administration (size at the start of administration is taken as 100%)” value in assay [2] (P1 (First generation mice)) amounted to 50%; in assay [2] (P2-1 (Second generation mice 1)) it was 50%; in assay [2] (P3-1 (Third generation mice produced from P2-1)), 60%.
